Source: PubChem BioAssay AID2716 (Broad Institute, 2010)
The list shows a part of the results, in another mix than the full data. Activity calls are given as the source filed them.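 The calls were made as follows: active = every valid replicate shows activation above 250% relative to neutral control wells; inactive = the rest, any valid replicate at or below 250%.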

Test: yeast Mot1-301 growth rescue at high temperature, primary screen, SUMOylation pathway inhibitor project, S. cerevisiae, ATP luminescence, 38.5C (AID 2716);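 also: OY570 slx delta 5 strain wells were the positive control but not used for scaling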
Conditions: S. cerevisiae Mot1-301 growth rescue, at 18.8 µM, active compounds read high, percent above DMSO median, 100 means doubled

Compound	growth rescue
O=[N+]([O-])c1ccc2c(c1)nnn2O	inactive: 13.5%
CN(C)C(=O)c1cc([N+](=O)[O-])cc2c1-c1c(cc([N+](=O)[O-])cc1[N+](=O)[O-])C2=O	inactive: 60.3%
CN(C(=O)Cc1ccc(Cl)c(Cl)c1)[C@H]1CC[C@@]2(CCCO2)C[C@@H]1N1CCCC1	inactive: -2.97%
N#CCCN(C(=O)COC(=O)C(O)(c1ccccc1)c1ccccc1)c1ccc(F)cc1	inactive: 18.6%
CCOP1(=S)c2c(C)nn(CCC#N)c2N=C(c2ccc(F)cc2)N1C (centres undefined)	inactive: 14.7%
CN(C(=O)Cc1ccccc1)[C@@H]1CC[C@]2(CCCO2)C[C@H]1N1CCCC1	inactive: -1.43%
NC(=O)Nc1ccc([As](=O)(O)O)cc1	inactive: 5.98%
Cc1cccc(OCC(=O)OC2CN3CCC2CC3)c1 (centres undefined)	inactive: 6.58%
O=[As](O)(c1cccc(O)c1)c1cccc(O)c1	inactive: -8.2%
O=[As](O)(O)c1cccnc1	inactive: -9.37%
COc1cc(C(=O)NCC2(N3CCOCC3)CCCCC2)cc(Cl)c1OC(C)C	inactive: 65%
CS(=O)(=O)c1ccc(Cl)c(NC(=O)COC(=O)C(O)(c2ccccc2)c2ccccc2)c1	inactive: 12.9%
O=C(OC1CN2CCC1CC2)c1ccc(Cl)cc1 (centres undefined)	inactive: 11.9%
COc1cc(C2NCCC3(OCCO3)C2(C)C)cc(OC)c1OC (centres undefined)	inactive: 6.69%
CCOP(=O)(Nc1cccc2ccccc12)OCC	inactive: -5.92%
CCCOP(=S)(Nc1nc(N)cc(=O)[nH]1)OCCC	inactive: 9.41%
Nc1cccc2c([As](=O)(O)O)cccc12	inactive: -22.3%
Cc1ccc(NCCc2c([N+](=O)[O-])cc([N+](=O)[O-])cc2[N+](=O)[O-])cc1	inactive: -8.67%
COc1ccc2nc(NP(=O)(c3ccccc3)c3ccccc3)sc2c1	inactive: 24.7%
COc1cc(I)ccc1[As](=O)(O)O	inactive: 11.2%
O=C(OC1CN2CCC1CC2)C12CC3CC(CC(C3)C1)C2 (centres undefined)	inactive: 50%
Cc1cc(=O)[nH]c(N[N+](=O)[O-])n1	inactive: 7.81%
Cc1c2c(nc3ccccc13)SC(C(Cl)Cl)C2 (centres undefined)	inactive: -7.24%
COc1ccc(N/C(=N/P(=O)(N2CCOCC2)N2CCOCC2)N2CCOCC2)cc1	inactive: -1.16%
Cc1ccc2nc3c(c(C)c2c1)CC(C(Cl)Cl)S3 (centres undefined)	inactive: 2.07%

Compound	growth rescue
Cc1ccc(OP(=O)(Nc2ccc([N+](=O)[O-])cn2)Oc2ccc(C)cc2)cc1	inactive: 254%
O=[As](O)(c1ccc(O)cc1)c1ccccc1O	inactive: -12.4%
C[As](=O)(O)c1cccc(C(=O)O)c1	inactive: -4.65%
COc1cc(C(=O)NCC2(N3CCOCC3)CCCCC2)ccc1OCC(C)C	inactive: -24.1%
CC(C)NC(=O)NP(=O)(Oc1ccccc1)Oc1ccccc1	inactive: -0.00085%
CCN(CC)C(=S)SC(NC=O)C(Cl)(Cl)Cl (centres undefined)	inactive: 11.2%
O=[N+]([O-])c1cc([N+](=O)[O-])c(-c2ccn[nH]2)s1	inactive: -30%
CC(C)c1ccc(OP(=O)(Nc2ccccn2)Oc2ccccc2F)cc1 (centres undefined)	inactive: 6.83%
ClCCSc1nnc(-c2cccnc2)o1	inactive: -1.41%
Cc1cc(SC(NC(=O)c2ccccc2)C(Cl)(Cl)Cl)nc(C(C)C)n1 (centres undefined)	inactive: -1.47%
CCOC(=O)Nc1ccc([As](=O)(O)O)c(O)c1	inactive: -4.05%
O=[N+]([O-])c1ccc(Nc2ccc(Oc3ccc([N+](=O)[O-])cc3[N+](=O)[O-])cc2)c([N+](=O)[O-])c1	inactive: 65%
O=P(Nc1ccccn1)(c1cccc2ccccc12)c1cccc2ccccc12	inactive: 92.6%
Cc1cc(SC(NC=O)C(Cl)(Cl)Cl)ncn1 (centres undefined)	inactive: -12.7%
CCOC(=O)Nc1cccc([As](=O)(O)O)c1	inactive: -18.5%
O=C(COc1ccccc1)OC1CN2CCC1CC2 (centres undefined)	inactive: -10.9%
O=C(Nc1ccncc1[N+](=O)[O-])c1ccc([N+](=O)[O-])cc1[N+](=O)[O-]	inactive: -5.16%
COP1(=S)c2c(C)nn(CCC#N)c2N=C(c2ccc(F)cc2)N1C (centres undefined)	inactive: 5.3%
CCC(C)N(CC(C)C)C(=S)SC(NC(C)=O)C(Cl)(Cl)Cl (centres undefined)	inactive: -8.47%
CCOC(=O)c1ccc(NC(=O)C(C)(CCl)SC)cc1 (centres undefined)	inactive: 193%
O=C(OC1CN2CCC1CC2)c1cccc([N+](=O)[O-])c1 (centres undefined)	inactive: 415%
CC(=O)N1C2C3N(C(C)=O)C1C1N(C(C)=O)C(C(N1C(C)=O)N3C(C)=O)N2C(C)=O	inactive: 4.57%
Cc1ccc(NP(=O)(Oc2ccccc2)Oc2ccccc2)nc1	inactive: 186%
CCc1nc2c(n1)c1c(non1O)c1c2no[n+]1[O-]	inactive: 0.721%
